{"sequences": {"note": "The chains behind the UniProt entries cited, without tags or fusion partners. Residues count along the entry.", "UniProt P47871, 26-477, species assumed": "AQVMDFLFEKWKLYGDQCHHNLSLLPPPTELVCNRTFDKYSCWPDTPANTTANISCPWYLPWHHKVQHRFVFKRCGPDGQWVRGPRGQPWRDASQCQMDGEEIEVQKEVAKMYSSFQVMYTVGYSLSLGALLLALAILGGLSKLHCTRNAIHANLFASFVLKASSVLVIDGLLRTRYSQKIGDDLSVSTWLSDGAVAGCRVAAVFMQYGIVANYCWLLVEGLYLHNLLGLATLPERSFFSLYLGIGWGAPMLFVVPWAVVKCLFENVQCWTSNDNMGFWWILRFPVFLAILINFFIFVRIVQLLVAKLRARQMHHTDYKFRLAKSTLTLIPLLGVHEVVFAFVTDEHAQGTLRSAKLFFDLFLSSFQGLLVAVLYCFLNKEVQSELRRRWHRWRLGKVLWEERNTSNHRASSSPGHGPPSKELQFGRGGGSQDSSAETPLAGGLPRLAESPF"}, "source": "patent EP1682577B1", "about": "“CELL-BASED ASSAYS EMPLOYING VOLTAGE AND CALCIUM DYES” (priority 2003, dated 2005)", "target": "T1, GCGR (Homo sapiens, UniProt P47871)", "T1 construct": "expressed in transfected cells", "type": "cell-based", "note": "Values joined by “and” are separate entries in the source; they are usually repeats but may differ in a detail not shown here. Identical values can stand only once.", "data": [{"substance": "glucagon", "values": [{"measurement": "Fmax/ Fb", "value": "4.2 and 4.9 and 4 and 4.6"}]}]}
